Consider 15 compounds from EP4821925A2, “MRGPRX2 ANTAGONIST AND USE THEREOF” (dated 2026).

Chains of the proteins cited; added tags and fusions are not shown.
UniProt Q96LB1, whole entry: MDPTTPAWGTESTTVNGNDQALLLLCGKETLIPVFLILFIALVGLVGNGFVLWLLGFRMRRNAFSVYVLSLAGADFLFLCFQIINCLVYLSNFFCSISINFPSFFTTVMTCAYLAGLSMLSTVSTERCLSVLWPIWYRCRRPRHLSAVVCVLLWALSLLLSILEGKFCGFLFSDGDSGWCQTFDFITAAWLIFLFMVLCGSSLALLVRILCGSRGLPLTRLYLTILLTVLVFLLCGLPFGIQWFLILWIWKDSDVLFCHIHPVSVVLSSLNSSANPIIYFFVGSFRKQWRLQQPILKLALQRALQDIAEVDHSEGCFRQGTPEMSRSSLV
UniProt O95342, whole entry: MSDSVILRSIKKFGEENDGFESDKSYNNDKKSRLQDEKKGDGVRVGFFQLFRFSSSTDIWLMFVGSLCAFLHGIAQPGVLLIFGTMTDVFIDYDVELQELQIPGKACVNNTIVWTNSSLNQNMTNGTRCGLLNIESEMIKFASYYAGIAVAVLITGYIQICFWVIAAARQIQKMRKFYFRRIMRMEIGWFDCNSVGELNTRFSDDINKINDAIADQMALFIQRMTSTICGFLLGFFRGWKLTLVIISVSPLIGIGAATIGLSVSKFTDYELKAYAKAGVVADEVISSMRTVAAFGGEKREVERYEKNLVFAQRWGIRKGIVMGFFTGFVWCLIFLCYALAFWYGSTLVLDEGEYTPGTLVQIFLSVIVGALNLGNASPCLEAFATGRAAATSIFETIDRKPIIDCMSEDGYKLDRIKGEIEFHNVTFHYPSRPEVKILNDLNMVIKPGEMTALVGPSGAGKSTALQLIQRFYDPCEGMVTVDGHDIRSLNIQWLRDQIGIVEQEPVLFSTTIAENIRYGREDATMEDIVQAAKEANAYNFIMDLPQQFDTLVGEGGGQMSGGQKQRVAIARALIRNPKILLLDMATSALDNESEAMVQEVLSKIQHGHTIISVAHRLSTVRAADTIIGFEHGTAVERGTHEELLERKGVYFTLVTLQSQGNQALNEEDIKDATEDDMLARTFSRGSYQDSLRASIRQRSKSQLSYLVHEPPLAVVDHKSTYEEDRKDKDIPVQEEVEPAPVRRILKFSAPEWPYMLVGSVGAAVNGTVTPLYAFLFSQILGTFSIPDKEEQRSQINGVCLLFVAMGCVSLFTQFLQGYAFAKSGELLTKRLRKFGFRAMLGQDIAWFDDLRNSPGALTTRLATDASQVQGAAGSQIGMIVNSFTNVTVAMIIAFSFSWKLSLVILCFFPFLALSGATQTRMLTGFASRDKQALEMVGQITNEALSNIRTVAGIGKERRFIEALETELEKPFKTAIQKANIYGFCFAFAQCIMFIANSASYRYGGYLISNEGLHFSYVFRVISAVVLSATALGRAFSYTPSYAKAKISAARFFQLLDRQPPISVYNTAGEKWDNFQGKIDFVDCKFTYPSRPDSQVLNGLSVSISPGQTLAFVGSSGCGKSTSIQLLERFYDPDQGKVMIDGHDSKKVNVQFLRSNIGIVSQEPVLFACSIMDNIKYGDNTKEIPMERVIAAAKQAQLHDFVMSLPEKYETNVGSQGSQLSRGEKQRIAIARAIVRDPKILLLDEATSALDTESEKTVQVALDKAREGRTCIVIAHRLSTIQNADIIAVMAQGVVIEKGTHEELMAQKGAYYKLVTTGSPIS

Data set [1] has as its target T1, human MRGPRX2 (Homo sapiens, UniProt Q96LB1). The data set can be described thus: MRGPRX2 in vitro calcium flux assay. To be noted: CHO stably-transfected cell line highly expressing human MRGPRX2; agonist C48/80; FLIPR fluorescence. The method, then: The antagonistic effect of the compounds on MRGPRX2 was determined in a CHO stably-transfected cell line that highly expresses human MRGPRX2. 18 h before the assay, cells were seeded in a black-wall transparent base plate containing DMEM/F12 (1:1) medium at a specific density and incubated at 37 °C with 5% CO2 for 18 h. Then, an appropriate amount of dye solution was added to each well, and the cells were incubated for another 30 min in the incubator at 37 °C in the dark. The cells were further incubated for 10 min at room temperature in the dark. Subsequently, the compounds at different final concentrations were added to each well and equilibrated for 20 min. Finally, a certain amount of C48/80 solution was added to the cells, and fluorescence signals were measured using FLIPR. The concentration of the compound was plotted on the X-axis, and the fluorescence signal value was plotted on the Y-axis. The antagonistic effect (IC50 value) of the compound was calculated using GraphPad Prism 8.0 software. A denotes an IC50 value ≤ 100 nM, B denotes 100 nM < IC50 value ≤ 500 nM, and C denotes an IC50 value greater than 500 nM.
Background: Calcium assays in cells follow changes in intracellular calcium, usually with a dye or a luminescent sensor.

Data set [2] has as its target T1, human MRGPRX2. Nature of the data set: MRGPRX2 in vitro IP-1 assay. To be noted: CHO stably-transfected cell line highly expressing human MRGPRX2; agonist Cortistatin-14; IP-1 readout 665 nm/620 nm. How it is done: The antagonistic effect of the compounds on MRGPRX2 was determined in a CHO stably-transfected cell line that highly expresses human MRGPRX2. The drugs prepared by serial dilution with DMSO were added to a micropore plate, and the stably-transfected cells were treated with trypsin. The cells were collected, counted, and then seeded into the microplate, and the microplate was incubated at 37 °C for 10 min. Cortistatin-14 solution at a specific concentration was added, and the cells were centrifuged and then incubated at 37 °C for 60 min. After the incubation was completed, diluted d2-IP1 and Anti-IP 1-Cryptate were added to each well. The cells were centrifuged and then left to stand at room temperature for 1 h. After the incubation was completed, the fluorescence readings at 665 nm and 620 nm were obtained. The concentration of the compound was plotted on the X-axis, and the fluorescence signal ratio was plotted on the Y-axis. The antagonistic effect (IC50 value) of the compound was calculated using Graphpad software. Table 2: MRGPRX2 IP-1 assay results

A short description of data set [3]: Human liver microsome stability assay. To be noted: human liver microsomes, NADPH, 37 °C. How it is done: The human liver microsome stability assay was performed by co-incubating the compounds with human liver microsomes in vitro. Test compounds were first prepared as 10 mM stock solutions in DMSO solvent, followed by dilution of the compounds to 0.5 mM using acetonitrile. Human liver microsomes (Corning) were diluted with PBS to form a microsome/buffer solution, and 0.5 mM compound was diluted with this solution to form a working solution with a compound concentration of 1.5 µM and a human liver microsome concentration of 0.75 mg/mL. A deep-well plate was used, and 30 µL of the working solution was added to each well. Subsequently, 15 µL of pre-warmed 6 mM NADPH solution was added to start the reaction, and the plate was incubated at 37 °C. Reactions were terminated by adding 135 µL of acetonitrile to the corresponding wells at 0, 5, 15, 30, and 45 min of incubation. After the reaction was terminated with acetonitrile at the last 45 min time point, the deep-well plate was vortexed for 10 min (600 rpm/min) and then centrifuged for 15 min. The supernatant was collected after centrifugation, and purified water was added at a ratio of 1:1 for LC-MS/MS analysis to obtain the ratio of peak area of compound to peak area of internal standard at each time point. The peak area ratios of the compounds at 5, 15, 30, and 45 min were compared with the peak area ratio thereof at 0 min, and the remaining percentage of compounds at each time point was calculated. T1/2 was calculated using Graphpad 5 software. Table 8. Human liver microsome stability data for the compounds
On the technique in general: Liver microsomes are vesicles of endoplasmic reticulum, rich in cytochrome P450 enzymes.

A short description of data set [4]: Pharmacokinetic assay in rats. To be noted: oral intragastric administration, 10 mg/kg, plasma. How it is done: (§1) Pharmacokinetic assay in rats was performed, and the rats used were male SD rats weighing 180-240 g and fasted overnight. Three rats were used, and oral intragastric administration was performed at a dose of 10 mg/kg. Blood was collected before administration and at 15 min, 30 min and 1 h, 2 h, 4 h, 8 h, and 24 h after administration. The blood samples were centrifuged at 6800 g at 2-8 °C for 6 min, and plasma was collected and stored at -80 °C. The plasma at each time point was taken, and 3-5 times its amount of an acetonitrile solution containing an internal standard was added for mixing. The mixture was vortexed for 1 min and then centrifuged at 13000 rpm at 4 °C for 10 min. The supernatant was taken, and 3 times its amount of water was added for mixing. An appropriate amount of the resulting mixture was taken for LC-MS/MS analysis. The major pharmacokinetic parameters were analyzed using a non-compartmental model in the WinNonlin 7.0 software. Table 5. Results of pharmacokinetic assay in rats

Another data set has as its target human BSEP (Homo sapiens, UniProt O95342). Nature of the data set: Assay for inhibitory effect on BSEP (vesicle transport). To be noted: vesicle expressing human BSEP, probe substrate transport, 37 °C. How it is done: The assay for the inhibitory effect on bile salt export pump (BSEP) by the compounds was performed using a vesicle expressing human BSEP (GenoMembrane). The compounds at different concentrations were pre-incubated with the vesicle for 5 min, with a negative control (NC) group and a positive control (PC) group set up. The NC group involved pre-incubation of the vesicle with blank buffer at 37 °C for 5 min, and the PC group involved pre-incubation of the vesicle with a positive inhibitor at 37 °C for 5 min. Subsequently, with the addition ofATP or AMP separately, the mixture was incubated with the probe substrate at 37 °C for 5 min. The assay was terminated using pre-cooled Buffer B1 (10 × Buffer B1 (Stopping and Washing Buffer): 100 mM Hepes-Tris, 1000 mM KNO3, 500 mM Sucrose). The test samples were transferred to a 96-well filter plate, subjected to suction filtration by a vacuum pump, and then washed 5 times with 0.2 mL of pre-cooled Buffer B1. 50 µL of 80% methanol was used to dissolve the vesicles on the filter plate. After collection, the mixture was centrifuged at 2000 rpm for 2 min to collect the filtrate, and the process was repeated once. The two filtrates were combined and mixed well to obtain approximately 100 µL of filtrate. Pre-cooled methanol containing an internal standard was added, and the mixture was centrifuged at 12,000 rpm for 5 min. The supernatant was collected for LC-MS/MS quantification analysis to detect the amount of substrate transported. The concentration of the compound was plotted on the X axis, and the relative activity (% of NC) was plotted on the Y axis. The IC50 value and the inhibition rate of the compound on inhibiting bile salt export pump activity were calculated using Prism software.
The transport rate (activity) and relative activity under different conditions were calculated according to the following formulas: Substrate active transport rate (pmol/min/mg) =; (transport amount of substrate driven by ATP−average transport amount of substrate driven by AMP (pmol))/(incubation time (min) × vesicle protein amount (mg)) [formula] Relative activity (%ofNC) = (transport activity of PC sample or test sample)/(transport activity of NC sample)% [formula] Table 6. Inhibitory effect of test compounds on BSEP

For another data set, the system named is HepG2 cells. Nature of the data set: Hepatotoxicity assay (HepG2 cell viability, CellTiter-Glo). The following applies: inhibition of viability of HepG2 cells, 72 h. The method, then: The hepatotoxicity assay for the compounds was performed using HepG2 (ATCC, HB-8065) cells. Cell viability was determined using a CellTiter-Glo Luminescent Cell Viability Assay kit (Promega, G7573), and the toxicity of the compounds was characterized by the inhibition of viability of HepG2 cells. HepG2 cells in the logarithmic growth phase were collected, the concentration of the cell suspension was adjusted, and then the cells were plated on a 96-well cell culture plate at 5000 cells/well. The cells were incubated in a cell incubator with 5% CO2 at 37 °C overnight, and the next day, medium change was performed, and compound solutions at different concentrations were added. Meanwhile, a negative control group (cells + DMSO) and a blank control group (medium + DMSO) were set, and the cells were incubated in the cell incubator with 5% CO2 at 37 °C for 72 h. After the treatment was completed, procedures were performed according to the instructions of the kit, and luminescence signal values in different wells were measured using an EnVision plate reader (2104). The inhibition of the viability of HepG2 cells by the compounds at different concentrations was calculated according to the following formula. The concentration of the compound was plotted on the X-axis, and the inhibition rate was plotted on the Y-axis. The toxic effect (IC50 value) of the compound on HepG2 was calculated using GraphPad Prism 8.0 software. Inhibition rate (%) = (1−(signal value of each compound group−signal value of blank control group)/(signal value of negative control group−signal value of blank control group)) × 100% [formula] Table 3: Assay results of toxicity on HepG2
(In general: Cellular ATP, detected with luciferase, serves as a proxy for viable cell number.)

Data set [5] in a line: Pharmacokinetic assay in mice. To be noted: oral intragastric administration, 10 mg/kg, plasma. The method, then:
as §1, with “mice” for “rats”, “ICR mice” for “SD rats”, “20-25” for “180-240”, “4.” for “5.”

`Cn1nc(N[C@H]2CC[C@@H](NC(=O)c3cn(CC(F)(F)F)nc3Cl)CC2)cc(C(F)F)c1=O`: the IC50 at human MRGPRX2 [1] was < 0.1 µM; on human MRGPRX2 [2], 0.085 µM.
Take `Cn1nc(N[C@H]2CC[C@@H](NC(=O)c3cnn(CC(F)(F)F)c3)CC2)cc(C(F)(F)F)c1=O`: the “Half-life (T1/2, min)” value in data set [3] is 220 min. Further, in data set [4], the “AUC0-t” value came out at 24330 ng·h/mL and the “Cmax” value is 3822 ng/mL. At human BSEP, this compound had an IC50 of 77 µM. For the same compound, the half-inhibitory concentration (IC50) in the data set with HepG2 cells is > 100 µM.
Consider `CCn1nc(N[C@H]2CC[C@@H](NC(=O)c3cn(CC(F)(F)F)nc3Cl)CC2)cc(C(F)(F)F)c1=O`, for which the IC50 at human MRGPRX2 [1] is 0.1 to 0.5 µM; at human MRGPRX2 [2], 0.137 µM; in the data set with HepG2 cells it was > 100 µM.
Consider `Cn1nc(N[C@H]2CC[C@@H](NC(=O)c3cn(CC(C)(C)O)nc3Cl)CC2)cc(C(F)(F)F)c1=O`, for which the 50% inhibitory concentration (IC50) on human MRGPRX2 [1] was 0.1 to 0.5 µM; on human MRGPRX2 [2], 0.364 µM; against human BSEP, > 100 µM; in the data set on HepG2 cells it was > 100 µM.
In the case of `Cn1cc(C(=O)N[C@@H]2CCC[C@H](Nc3cc(C(F)(F)F)nc4cc(Cl)sc34)C2)cn1`, the IC50 at human MRGPRX2 [1] is 0.1 to 0.5 µM.
With `Cn1cc(C(=O)N[C@H]2CC[C@@H](Nc3cc(C(F)(F)F)c(=O)n(C)n3)CC2)c(Cl)n1`, in the data set with HepG2 cells, the IC50 is > 100 µM.
On to `O=C(N[C@H]1CC[C@@H](Nc2cc(C(F)(F)F)c(=O)n(C3CC3)n2)CC1)c1cn(CC(F)(F)F)nc1Cl`, for which the IC50 on human MRGPRX2 [1] is < 0.1 µM. The IC50 at human MRGPRX2 [2] was found to be 0.01 µM. Also, in data set [5], the “AUC0-t” value was 33271 ng·h/mL and the “Cmax” value is listed as 7407 ng/mL.
For the compound `Cn1nc(N[C@H]2CC[C@@H](NC(=O)c3ccc(F)cc3)CC2)cc(C(F)(F)F)c1=O`, in data set [3], the “Half-life (T1/2, min)” value is given as 355 min. The IC50 at human MRGPRX2 [1] was < 0.1 µM; on human MRGPRX2 [2], 0.075 µM; with HepG2 cells it was > 100 µM. Further, the “AUC0-t” value in data set [5] was 29680 ng·h/mL. Besides, the “Cmax” value in data set [5] came to 4045 ng/mL.
As to `Cn1nc(N[C@H]2CC[C@@H](NC(=O)c3cn(CC(F)(F)F)nc3F)CC2)cc(C(F)(F)F)c1=O`, the “Half-life (T1/2, min)” value in data set [3] is recorded as 422 min. Besides, the “AUC0-t” value in data set [4] stood at 37434 ng·h/mL. For the same compound, the “Cmax” value in data set [4] was found to be 4545 ng/mL. Also, the IC50 on human MRGPRX2 [1] was < 0.1 µM; on human MRGPRX2 [2], 0.086 µM; on human BSEP it was 88 µM.
`Cn1cc(C(=O)N[C@@H]2CCC[C@H](Nc3nn(CC(F)(F)F)c(=O)c4ccc(Cl)cc34)C2)cn1`: the IC50 is 0.1 to 0.5 µM at human MRGPRX2 [1] and 65 µM against human BSEP.
As for `N#Cc1ccc(NC2CCC(NC(=O)c3cnn(CC(F)(F)F)c3)CC2)cc1C(F)(F)F` (stereo not drawn), the IC50 on human BSEP is 3.8 µM.
In the case of `Cn1cc(C(=O)N[C@@H]2CCC[C@H](Nc3cc(C(F)(F)F)nc4sc(Cl)cc34)C2)cn1`, the IC50 at human MRGPRX2 [1] lay within 0.1 to 0.5 µM.
As for `CC(n1cc(C(=O)N[C@H]2CC[C@@H](Nc3cc(C(F)(F)F)c(=O)n(C)n3)CC2)c(Cl)n1)S(C)(=O)=O` (stereo partly drawn), the 50% inhibitory concentration (IC50) at human MRGPRX2 [1] was 0.1 to 0.5 µM; on human MRGPRX2 [2], 0.224 µM; at human BSEP, > 100 µM; in the data set with HepG2 cells, > 100 µM.
Consider `O=C(N[C@H]1CC[C@@H](Nc2cc(C(F)(F)F)c(=O)n(CC(F)(F)F)n2)CC1)c1cn(CC(F)(F)F)nc1Cl`, for which, in data set [3], the “Half-life (T1/2, min)” value is reported as 560 min. Moreover, the “AUC0-t” value in data set [4] stood at 69406 ng·h/mL; in data set [5], 45500 ng·h/mL. For the same compound, the “Cmax” value in data set [4] is recorded as 7670 ng/mL; in data set [5] it was 6624 ng/mL. In addition, the IC50 at human MRGPRX2 [1] was < 0.1 µM; on human MRGPRX2 [2], 0.052 µM.
Take `Cn1nc(N[C@H]2CC[C@@H](NC(=O)c3cn(CC(F)F)nc3Cl)CC2)cc(C(F)(F)F)c1=O`: the IC50 on human MRGPRX2 [1] was 0.1 to 0.5 µM; on human MRGPRX2 [2], 0.161 µM; at human BSEP, > 100 µM; in the data set with HepG2 cells, > 100 µM.

What is called IC50 is the midpoint of a concentration-inhibition curve. As usually defined, the Cmax is the maximum level reached in the sampled fluid or tissue.
